Results taken from patent publication US8298328B2, “Amorphous metal salt for facilitating the handling property of portland cements and dental applications thereof” (Taipei Medical University, priority 2008, dated 2012).

Assay: Water solubility of the divalent metal salt powder
Conditions: 25° C., dried powder

## Calcium Gluconate [Comparative Example 2, reference compound]
  Solubility (water solubility): 3.0~4.0 g/100 ml
Listed as CG
  Solubility (water solubility): 3.0˜4.0 g/100 ml
